Amino acid sequences for entries named in this document (tags omitted).
UniProt P11440, whole entry: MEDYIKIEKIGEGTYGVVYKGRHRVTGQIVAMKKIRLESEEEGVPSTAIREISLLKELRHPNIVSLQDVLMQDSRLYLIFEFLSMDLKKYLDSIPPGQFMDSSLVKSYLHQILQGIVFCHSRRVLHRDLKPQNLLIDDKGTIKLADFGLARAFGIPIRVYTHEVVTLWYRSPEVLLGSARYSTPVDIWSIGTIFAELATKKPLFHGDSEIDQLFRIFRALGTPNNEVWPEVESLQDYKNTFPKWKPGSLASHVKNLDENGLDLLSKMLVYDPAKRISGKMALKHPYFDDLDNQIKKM
UniProt P24860, whole entry partner: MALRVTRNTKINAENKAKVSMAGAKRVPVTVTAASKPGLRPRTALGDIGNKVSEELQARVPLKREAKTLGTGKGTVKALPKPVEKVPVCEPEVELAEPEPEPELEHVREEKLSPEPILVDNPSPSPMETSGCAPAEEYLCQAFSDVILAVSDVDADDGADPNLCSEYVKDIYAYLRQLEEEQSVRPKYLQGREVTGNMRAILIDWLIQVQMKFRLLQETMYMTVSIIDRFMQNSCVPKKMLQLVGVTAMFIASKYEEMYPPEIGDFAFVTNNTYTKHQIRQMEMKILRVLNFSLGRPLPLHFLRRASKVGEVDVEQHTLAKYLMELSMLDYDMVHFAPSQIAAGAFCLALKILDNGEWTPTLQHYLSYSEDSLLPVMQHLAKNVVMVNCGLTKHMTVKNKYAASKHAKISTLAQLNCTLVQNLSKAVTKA

According to patent publication US20030082803A1, “Cell cycle control” (priority 1999, published 2003):

What was measured:
mES cells [1] = assay: Northern blot analysis of mES cell marker genes Rex-1 and Oct4; conditions: inhibitor treatment up to 8 passages
Experimental: (§1) Cdk2 activity levels determine the rate of mES cell division but not cell cycle structure. (A) mES cells were grown for up to 8 passages in the presence (+) or absence (−) of Ro09-3033 (2 μM). Cdk2, cyclin E and cyclin B-associated H1 kinase activities were assayed as described previously after immunoprecipitation from whole cell lysates (100 μg protein). Input loading control was determined by probing immunoblots (15 μg lysate protein) with α-Cdk2 and α-Oct4 polyclonal antibodies. Quantitation of H1 kinase activities are shown in the lower panel as the average of two independent experiments. (B) Northern blot analysis of Oct4, Rex-1 and GAPDH transcripts from mES cells grown with (+) or without (−) inhibitor (2 μM) for the number of passages indicated. RNA was resolved by agarose gel electrophoresis, blotted and hybridized with [^32P]-labelled Oct4, Rex-1 and GAPDH probes (15 μg total RNA per lane). […] (C) After 8 passages in the presence (+) or absence (−) of 2 μM Ro09-3033, mES and mEPL cells were fixed and stained with PI and analysed by flow cytometry. […] Generation times of mEPL cells were not determined in this experiment.
Cells were scraped from petri dishes following incubation for 5 minutes in TEN buffer at room temperature. […] Membranes were scanned and hybridisation signals quantitated by scanning on a phosphorimager.

Saos2 cells = assay: Cell cycle arrest by flow cytometry of PI-stained Saos2 cells
Experimental: Ro09-3033 imposes a cell cycle arrest in Saos2 cells. (A) Structure of the Cdk2 inhibitor Ro09-3033. (B) Saos2 cells were grown in the presence of DMSO (0.5%), 0.1% FCS for 48 hours or 10 μM Ro09-3033 for 48 hours. Flow cytometry profiles of PI-stained cells are shown together with the percentage of cells in G0/G1, S or G2/M.
In preparation for flow cytometry, cells were resuspended in 300 μl of PBS supplemented with 1% FCS. Cells were then fixed by the drop-wise addition of 900 μl of ice cold 95% ethanol while vortexing and left on ice for 10 minutes. Cells were collected by centrifugation (3,000×g, 5 mins), washed twice in 700 μl of cold PBS before being finally resuspended in PBS. Cells were stained by the addition of 2.5 mg/ml propidium iodide (Sigma) and 0.5 mg/ml RNAase A and analysed on a Beckman-Coulter flow cytometer with WinMDi software.

cyclin E kinase activity = cyclin E kinase activity (Mus musculus, UniProt P97377); assay: Histone H1 kinase assay of cyclin E immunoprecipitated from mES whole cell lysates; conditions: 2 μM, mES cells, standard assay conditions
Experimental: as §1
(§2) Protein A Sepharose (PAS) beads (Pharmacia) were stored in BSA (1 mg/ml), 0.05% sodium azide at 4° C. as a 50% slurry. […] [^32P]-labelled histone H1 was quantitated from dried gels using a phosphorimager (Molecular Dynamics).

mES cells [2] = assay: Cell cycle arrest and cell cycle structure by flow cytometry of PI-stained mES cells
Experimental: as §1
In preparation for flow cytometry, cells were resuspended in 300 μl of PBS supplemented with 1% FCS. […] Cells were stained by the addition of 2.5 mg/ml propidium iodide (Sigma) and 0.5 mg/ml RNAase A and analysed on a Beckman-Coulter flow cytometer with WinMDi software.

Cdk2 [3] = molecular target: Cdk2 (Homo sapiens, UniProt P24941); conditions: reference (6); cited from earlier work
Cdk2-cyclin E = Cdk2-cyclin E (Homo sapiens, UniProt P24941); assay: Protein kinase assay for the characterization of Ro09-3033 (recombinant Cdk-cyclin complexes)
Experimental: Protein kinase assays for the characterization of Ro09-3033 were performed as described in (6). Recombinant human Cdc2-cyclin B, Cdk2-cyclin E and Cdk4-cyclin D, expressed from baculovirus expression constructs in insect cells, were kind gifts from Dr Wade Harper (Baylor College of Medicine, Houston, Tex.).

Cdk2 [4] = molecular target: Cdk2 (Mus musculus, UniProt P97377); assay: Histone H1 kinase assay of Cdk2 immunoprecipitated from mES whole cell lysates; conditions: 2 μM, mES cells, standard assay conditions
Experimental: as §1, §2

Cdc2-cyclin B = Cdc2-cyclin B (Mus musculus, UniProt P11440); assay: Histone H1 kinase assay of cyclin B immunoprecipitated from mES lysates; conditions: 2 μM and up to 20 μM
Experimental: as §1, §2

mES cells [5] = assay: Generation time, BrdU incorporation and viability of mES cells grown with inhibitor
Experimental: Cdk2 activity levels determine the rate of mES cell division but not cell cycle structure. (A) mES cells were grown for up to 8 passages in the presence (+) or absence (−) of Ro09-3033 (2 μM). Cdk2, cyclin E and cyclin B-associated H1 kinase activities were assayed as described previously after immunoprecipitation from whole cell lysates (100 μg protein). Input loading control was determined by probing immunoblots (15 μg lysate protein) with α-Cdk2 and α-Oct4 polyclonal antibodies. Quantitation of H1 kinase activities are shown in the lower panel as the average of two independent experiments. (B) Northern blot analysis of Oct4, Rex-1 and GAPDH transcripts from mES cells grown with (+) or without (−) inhibitor (2 μM) for the number of passages indicated. RNA was resolved by agarose gel electrophoresis, blotted and hybridized with [^32P]-labelled Oct4, Rex-1 and GAPDH probes (15 μg total RNA per lane). Lanes designated +/− were RNA samples from mES cells grown for either 2 or 12 passages with inhibitor followed by 4 passages in the absence of inhibitor. (C) After 8 passages in the presence (+) or absence (−) of 2 μM Ro09-3033, mES and mEPL cells were fixed and stained with PI and analysed by flow cytometry. The mean generation time (two independent experiments) for mES cells over this period is indicated in addition to the % of cells in G1, S and G2/M phases. Generation times of mEPL cells were not determined in this experiment.
D3 mES cells (1) were cultured in the absence of feeders on tissue culture grade plastic-ware pre-coated with 0.1% gelatin-phosphate buffered saline (PBS), as described previously (2). ES cell culture medium consisted of Dulbecco's Modified Eagle Medium (DMEM, Gibco BRL) supplemented with 10% foetal calf serum (FCS, Commonwealth Serum Laboratories), 1 mM L-glutamine, 0.1 mM 2-mercaptoethanol, 100 U/ml penicillin, 100 U/ml streptomycin and 1000 U/ml recombinant human LIF (ESGRO) at 37° C. under 10% CO2. mEPL cells were formed and maintained by culturing as described previously (2) in ES-media containing 50% conditioned media (MedII) supplemented with 1 mM L-glutamine, 0.1 mM 2-mercaptoethanol, 100 U/ml penicillin, 100 U/ml streptomycin and 1,000 U/ml recombinant LIF at a density of 2×10^4 cells/cm^2. mEPL cells were passaged every 48 hours. MedII conditioned media was prepared from HepG2 cells (ATCC HB-8065) grown for 5 days in DMEM supplemented with 10% FCS, 40 mg/ml gentamycin and 1 mM L-glutamine, after being seeded at 5×10^4 cells/ml. Cell supernatants were collected, filter sterilized then stored at 4° C. for up to 2 weeks. […]

For `CO[C@@]1(C)[C@H](O)C(=O)C(C)=C2OC(=O)c3c(C)cc(O)c(C)c3O[C@@H]21`, the “Effect on expression pattern of mES cell marker genes Rex-1 and Oct4” value (mES cells [1]) was “no effect”, the “Cell cycle arrest in Saos2 cells” value (Saos2 cells; 10 μM for 48 hours) was “imposes a cell cycle arrest” and the “Concentration required to produce a uniform cell cycle arrest” value (Saos2 cells; Saos2 cells) was 20 µM. The Cell cycle arrest (Saos2 cells; low micromolar range, FIG. 3B) was “enforces a cell cycle arrest”, the “Inhibition of immunoprecipitated cyclin E kinase activity” value (cyclin E kinase activity) was 50-60% and the “Effect on cell cycle structure” value (mES cells [2]; inhibitor-treated mES cells, 2 μM) was “no major effect”. The “Concentration required for uniform cell cycle arrest in mES cells relative to most other cell types tested” value (mES cells [2]; versus Saos2 cells, NIH 3T3 fibroblasts and MEFs) was over 5 fold, the “Binding to the ATP binding site of Cdk2” value (Cdk2 [3]) was “binds irreversibly” and the “Selectivity for Cdk2” value (Cdk2-cyclin E) was “highly selective for Cdk2”. For the same compound, the IC50 (Cdk2-cyclin E; read-out: IC50 for Cdk2, Table 1 is cited but not given) was 20 nM, the “Inhibition of immunoprecipitated Cdk2 kinase activity” value (Cdk2 [4]) was 50-60% and the “Effect on activity of other Cdks immunoprecipitated from mES lysates, such as Cdc2-cyclin B” value (Cdc2-cyclin B) was “no reproducible effect”. The “Percentage of cells that incorporated BrdU” value (mES cells [5]; 24 hour labelling period, treated mES cells, untreated 98%) was 95%, the “Increase in cell cycle time” value (mES cells [5]; inhibitor-treated versus untreated mES cells) was 66% and the “Generation time of mES cells” value (mES cells [5]; inhibitor-treated, 2 μM, 8 passages, untreated 11 hours) was 18.3 h. The “Effect on cell viability” value (mES cells [5]; mES cells, PI exclusion and absence of sub-2n DNA content) was “no effect on cell viability”.
